Measurements as given in PMC3097170 (The Journal of pharmacology and experimental therapeutics, 2011).

Sequences of proteins named here, by UniProt entry; tags and fusion partners are left off.
UniProt P42866, whole entry: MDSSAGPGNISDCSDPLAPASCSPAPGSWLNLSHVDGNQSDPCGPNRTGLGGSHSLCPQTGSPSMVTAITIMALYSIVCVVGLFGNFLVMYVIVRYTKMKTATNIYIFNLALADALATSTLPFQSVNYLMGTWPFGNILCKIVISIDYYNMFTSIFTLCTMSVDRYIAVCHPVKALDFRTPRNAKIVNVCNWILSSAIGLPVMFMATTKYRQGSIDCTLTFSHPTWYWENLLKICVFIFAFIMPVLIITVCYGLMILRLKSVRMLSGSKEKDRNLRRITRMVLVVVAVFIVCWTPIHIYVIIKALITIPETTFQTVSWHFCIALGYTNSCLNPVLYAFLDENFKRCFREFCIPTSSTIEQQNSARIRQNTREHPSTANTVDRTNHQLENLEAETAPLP

What was measured:
MOR [1] = target: T1, MOR (Mus musculus, UniProt P42866)
MOR [2] = target: T1, MOR; conditions: 1 μM agonist, 30 minutes, cells expressing MOR alone

Structure (SMILES): CN1CC[C@]23c4c5ccc(O)c4O[C@H]2[C@@H](O)C=C[C@H]3[C@H]1C5 [Morphine, morphine]
- Emax (RFU) (MOR [1]): 598 ± 36 RFU
- agonist-induced endocytosis of MOR (MOR [2]): did not promote endocytosis
